For four molecules, fluorescence slope results are on record in PubChem BioAssay AID625 (Vanderbilt High Throughput Screening Facility, 2007).

Sequences of proteins named here, by UniProt entry; tags and fusion partners are left off.
UniProt P08173, whole entry, looked up: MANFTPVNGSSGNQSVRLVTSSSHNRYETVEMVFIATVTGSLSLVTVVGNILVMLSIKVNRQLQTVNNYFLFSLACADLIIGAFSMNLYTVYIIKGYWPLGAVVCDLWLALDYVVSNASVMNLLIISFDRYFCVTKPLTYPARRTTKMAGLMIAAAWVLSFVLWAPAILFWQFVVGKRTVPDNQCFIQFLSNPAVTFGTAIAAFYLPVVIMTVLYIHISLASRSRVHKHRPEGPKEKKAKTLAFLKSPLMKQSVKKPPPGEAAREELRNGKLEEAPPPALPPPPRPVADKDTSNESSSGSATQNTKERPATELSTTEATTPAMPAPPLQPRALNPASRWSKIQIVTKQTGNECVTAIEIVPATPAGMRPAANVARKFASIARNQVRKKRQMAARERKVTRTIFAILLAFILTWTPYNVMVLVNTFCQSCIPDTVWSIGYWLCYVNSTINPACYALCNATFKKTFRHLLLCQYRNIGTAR

Structures are written as SMILES. Only a part is listed here, and it is no random draw. Calls of active or inactive are those of the source.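 Rule for the calls: active = fluorescence slope after compound addition differing from the mean of all tested samples at 99.7% confidence, mostly higher but some lower; inactive = the rest.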

The experiment has as its target Muscarinic acetylcholine receptor M4 (Homo sapiens) (UniProt P08173). Kind of experiment: M4-linked GIRK flux change, two-sided – cell-based, HEK293 M4/GIRK, thallium flux, BTC-AM, M4 allosteric agonist project, primary screen (AID 625).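 Note: thallium influx through GIRK channels coupled to M4 in HEK293 cells with BTC-AM dye.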 To be noted: at 10 µM, actives lie on both sides.
As to `Cc1cccc(OCC(=O)OC2CN3CCC2CC3)c1` (centres undefined), the fluorescence slope is inactive: 0.00453.
For `Cc1nn(-c2ccccc2)c2c1P(=O)(N1CCOCC1)N(C)C(c1ccccc1)=N2` (centres undefined) the value was inactive: 0.00613.
Take `COP1(=S)c2c(C)nn(CCC#N)c2N=C(c2ccc(F)cc2)N1C` (centres undefined): the fluorescence slope is inactive: 0.0103.
Consider `O=C(COc1ccccc1)OC1CN2CCC1CC2` (centres undefined), for which the fluorescence slope was inactive: 0.00488.
